Test results reported in patent US20180185324A1, “NOVEL CANNABINOID COMBINATION THERAPIES FOR MULTIPLE MYELOMA (MM)” (ONE WORLD CANNABIS LTD, priority 2015, published 2018).

Tested on: RPMI8226 MM cells
Test: XTT viability of RPMI8226 cells, cannabinoids in combination with anti-MM drugs
Conditions: 48 hours; for viability of RPMI8226 cells, in combination with BTZ: as compared to BTZ alone (also CBD and THC alone); for viability of RPMI8226 cells, in combination with CFZ: as compared to CFZ alone (also CBD and THC alone); for viability of RPMI8226 cells, in combination with DEX: as compared to DEX alone; for viability of RPMI8226 cells, in combination with DOXO: as compared to DOXO or CBD: THC (1:1) alone; for viability of RPMI8226 cells, in combination with MEL: as compared to DOXO, MEL or CBD: THC (1:1) alone

SMILES	viability of RPMI8226 cells, in combination with BTZ	viability of RPMI8226 cells, in combination with CFZ	viability of RPMI8226 cells, in combination with DEX	viability of RPMI8226 cells, in combination with DOXO	viability of RPMI8226 cells, in combination with MEL
C=C(C)[C@@H]1CCC(C)=C[C@H]1c1c(O)cc(CCCCC)cc1O [CBD, cannabidiol]	decreased significantly	decreased significantly	not increased their toxicity effect	no increased toxicity	no increased toxicity
CCCCCc1cc(O)c2c(c1)OC(C)(C)[C@@H]1CCC(C)=C[C@@H]21 [THC, Tetrahydrocannabinol]	no observable effect	no observable effect	not increased their toxicity effect	no increased toxicity	no increased toxicity
